## Ab-14 heavy chain CDR variants: yeast mating affinities

Antigen: PDVDLGDISGINAS, a 14-residue peptide of the SARS-CoV-2 spike HR2 region.

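Phage display of a naive human antibody library on the peptide gave the parent. Library AAYL49 holds single substitutions and randomly drawn double and triple substitutions in the CDRs. The assay is AlphaSeq: two haploid yeast populations carry antibody and antigen on their surface. After mating in shaken culture at 30 °C for 16 h, diploids were selected and their barcode pairs sequenced. Scores were corrected for input abundance and mapped to Kd with protein pairs of known affinity run in the same pool. There are three technical replicates.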

Each scFv is VH, a 15-residue (Gly4Ser)3 linker, VL, as in the parent Ab-14, and differs from it in the CDRs of the heavy chain only.
VH: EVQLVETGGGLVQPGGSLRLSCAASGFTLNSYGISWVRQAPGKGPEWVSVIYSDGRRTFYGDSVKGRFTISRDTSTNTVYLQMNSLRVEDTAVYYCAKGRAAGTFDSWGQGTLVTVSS
VL: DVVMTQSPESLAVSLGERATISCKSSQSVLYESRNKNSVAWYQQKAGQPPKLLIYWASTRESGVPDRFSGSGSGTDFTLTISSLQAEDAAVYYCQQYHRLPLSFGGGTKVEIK

Substitutions are numbered in sequence along the VH above, starting at 1 (not Kabat). Affinities are written as log10 Kd with Kd in nM; a lower number is a better binder. Replicates are averaged; those with no signal do not enter the mean. An entry "n.d." has no value in the source: the pair was not observed among the diploids in that replicate. This suggests poor binding but is not conclusive. Three control strains display no target. For library AAYL49, 15% of the pairings with them gave a signal, with a median of 4.06 and one signal in twenty below 2.83, so weak values seen in few replicates may be background. Also given: how often the same scFv was detected with the empty control strains, with their mean in brackets.

| changes | log10 Kd (nM) by replicate | mean, log10 nM | control signals |
|---|---|---|---|
| I34D/T58Y/Y60A | n.d. n.d. n.d. | n.d. | 3 of 9 (4.16) |
| S35H/D54F/D106A | n.d. n.d. n.d. | n.d. | 0 of 9 |
| Y52H/G61R/G103F | n.d. n.d. n.d. | n.d. | 1 of 9 (3.76) |
| L29M/A101Y/T104D | 3.75 n.d. n.d. | 3.75 | 0 of 9 |
| F59H/A102Q/G103L | 1.21 1.41 1.45 | 1.36 | 3 of 9 (4.09) |
| D54K/R57N/F105M | n.d. n.d. n.d. | n.d. | 0 of 9 |
| S31F/F105L/S107K | n.d. n.d. n.d. | n.d. | 0 of 9 |
| V50G/R56W/G99V | n.d. 3.60 4.02 | 3.81 | 4 of 9 (3.64) |
| S53R | n.d. n.d. n.d. | n.d. | 0 of 9 |
| S31G/V50R/S63V | n.d. n.d. n.d. | n.d. | 0 of 9 |
| F27I/D54F/S107P | n.d. n.d. n.d. | n.d. | 0 of 9 |
| N30D/S31V/F59D | n.d. n.d. n.d. | n.d. | 0 of 9 |
| I34P/R57H | n.d. n.d. n.d. | n.d. | 0 of 9 |
| T28A/G33Y/D62P | n.d. n.d. n.d. | n.d. | 1 of 9 (3.19) |
| F27Y/S31Y | 2.42 2.07 2.22 | 2.24 | 3 of 9 (3.70) |
| Y32E/S63A/T104R | 1.94 1.91 2.47 | 2.11 | 1 of 9 (4.78) |
| G26A/F27L/S35F | n.d. n.d. 3.60 | 3.60 | 3 of 9 (3.75) |
| Y60H/A102I/F105L | n.d. 3.54 n.d. | 3.54 | 3 of 9 (4.10) |
| G55M/S63M/G99M | n.d. n.d. n.d. | n.d. | 2 of 9 (3.66) |
| T28D/Y52R/S107H | n.d. n.d. n.d. | n.d. | 0 of 9 |
| I51K/G55Q/F105K | n.d. n.d. n.d. | n.d. | 0 of 9 |
| Y32M/F59A/Y60S | n.d. n.d. n.d. | n.d. | 0 of 9 |
| S53N/F59G/K65V | n.d. n.d. n.d. | n.d. | 0 of 9 |
| G61M/K65V/R100P | n.d. n.d. n.d. | n.d. | 0 of 9 |
| G33L | n.d. 3.72 n.d. | 3.72 | 3 of 9 (3.40) |
| F27M/S63W/V64C | 4.71 3.71 n.d. | 4.21 | 1 of 9 (4.84) |
| D54R/A101F/S107D | n.d. n.d. n.d. | n.d. | 0 of 9 |
| Y32R/I34M/K65E | n.d. n.d. n.d. | n.d. | 1 of 9 (3.60) |
| G26T/G55N/R57E | n.d. n.d. n.d. | n.d. | 0 of 9 |
| G26K/S63W/K65E | 3.90 2.62 3.36 | 3.29 | 2 of 9 (4.08) |
| V50I/R100M/T104N | n.d. n.d. n.d. | n.d. | 4 of 9 (4.14) |
| S53D/R100I/D106R | n.d. n.d. n.d. | n.d. | 1 of 9 (4.56) |
| F27G/Y32D/A101C | n.d. 4.16 n.d. | 4.16 | 3 of 9 (4.27) |
| I34L/D62W/D106H | n.d. n.d. n.d. | n.d. | 1 of 9 (3.52) |
| T28F/S63Q/G99C | 4.17 n.d. n.d. | 4.17 | 3 of 9 (4.65) |
| F27T/F59K/Y60K | n.d. n.d. n.d. | n.d. | 0 of 9 |
| D54Y/V64M/A101K | n.d. n.d. n.d. | n.d. | 0 of 9 |
| T28I/F105P | n.d. 4.12 n.d. | 4.12 | 2 of 9 (4.64) |
| V64I/A101T/A102F | n.d. n.d. n.d. | n.d. | 0 of 9 |
| G33S/S35V/F105L | n.d. n.d. n.d. | n.d. | 0 of 9 |
| I34R/G61S/S107C | 4.11 n.d. n.d. | 4.11 | 1 of 9 (3.07) |
| Y32I/S53I/T58V | n.d. 3.88 4.28 | 4.08 | 3 of 9 (4.46) |
| Y32V/S53G/A101C | 4.90 n.d. n.d. | 4.90 | 6 of 9 (4.18) |
| V50P/G55L/A101S | n.d. 3.39 n.d. | 3.39 | 1 of 9 (2.59) |
| F27S | 2.23 2.58 2.53 | 2.45 | 4 of 9 (3.49) |
| S35D/Y52Q/R57A | n.d. n.d. n.d. | n.d. | 1 of 9 (3.78) |
| S31G/S35F/G55Q | n.d. 4.22 n.d. | 4.22 | 0 of 9 |
| T28M/Y52K/G55F | 4.09 2.85 4.04 | 3.66 | 1 of 9 (4.34) |
| L29G/Y60C/G61S | n.d. n.d. n.d. | n.d. | 0 of 9 |
| N30D/K65N/A101G | 2.26 2.36 2.42 | 2.35 | 1 of 9 (4.55) |

6 of these entries, quoted again:

| changes | log10 Kd (nM) by replicate | mean, log10 nM | control signals |
|---|---|---|---|
| S53R | n.d. n.d. n.d. | n.d. | 0 of 9 |
| Y32M/F59A/Y60S | n.d. n.d. n.d. | n.d. | 0 of 9 |
| D54R/A101F/S107D | n.d. n.d. n.d. | n.d. | 0 of 9 |
| N30D/S31V/F59D | n.d. n.d. n.d. | n.d. | 0 of 9 |
| F59H/A102Q/G103L | 1.21 1.41 1.45 | 1.36 | 3 of 9 (4.09) |
| V64I/A101T/A102F | n.d. n.d. n.d. | n.d. | 0 of 9 |

For reference, the parent read 0.65 as the reference entry and 4.11 (one replicate of three) as a member of this library.

Source: Engelhart et al. 2022 (doi:10.1038/s41597-022-01779-4), MIT Lincoln Laboratory and A-Alpha Bio; data file from the FLAb repository.